The values below come from PubChem BioAssay AID504326 (The Scripps Research Institute Molecular Screening Center, 2011).

Amino acid sequences for entries named in this document (tags omitted).
UniProt P35372, whole entry, looked up: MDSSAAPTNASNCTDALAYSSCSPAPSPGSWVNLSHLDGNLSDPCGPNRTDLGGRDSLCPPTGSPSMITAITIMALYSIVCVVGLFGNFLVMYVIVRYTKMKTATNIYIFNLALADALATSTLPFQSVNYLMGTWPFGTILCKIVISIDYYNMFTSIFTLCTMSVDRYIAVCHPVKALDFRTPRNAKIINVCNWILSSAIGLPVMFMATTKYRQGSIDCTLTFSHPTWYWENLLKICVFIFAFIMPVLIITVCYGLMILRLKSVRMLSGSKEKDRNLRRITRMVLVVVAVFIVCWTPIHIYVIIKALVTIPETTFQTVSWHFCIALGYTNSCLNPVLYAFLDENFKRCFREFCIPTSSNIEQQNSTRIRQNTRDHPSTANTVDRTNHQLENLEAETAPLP
UniProt P41143, whole entry, looked up: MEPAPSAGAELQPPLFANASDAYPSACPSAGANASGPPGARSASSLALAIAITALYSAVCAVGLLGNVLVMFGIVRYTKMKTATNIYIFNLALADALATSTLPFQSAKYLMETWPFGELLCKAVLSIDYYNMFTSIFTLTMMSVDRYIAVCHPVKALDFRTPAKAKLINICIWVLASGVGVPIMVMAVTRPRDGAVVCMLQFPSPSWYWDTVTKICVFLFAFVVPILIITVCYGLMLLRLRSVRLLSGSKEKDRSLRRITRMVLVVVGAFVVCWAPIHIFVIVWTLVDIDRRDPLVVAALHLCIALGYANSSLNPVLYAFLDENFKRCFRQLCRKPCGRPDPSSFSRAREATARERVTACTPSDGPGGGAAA

The list shows a part of the results, in another mix than the full data. The source made the active and inactive calls. No stated cut-off is given here; in the data, active means activation above about 18%; inactive means the rest.

The target in this experiment is Mu-type opioid receptor (Homo sapiens) + Delta-type opioid receptor (Homo sapiens) (UniProt P35372+P41143). The experiment is described as follows: inducers of mu-delta opioid receptor heterodimers – cell-based, luminescence, primary screen (AID 504326).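 Further: 0% = vehicle-treated cells and 100% = reference agonist.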 The note with it: cells, OPRM1-OPRD1 heterodimerization, at 9.3 µM, active compounds read high.
As for `Cc1ccc(-c2csc(N3CCN(c4ccc5nc(-c6ccncc6)n(CCN6CCCCC6)c5c4)CC3)n2)cc1`, the activation is inactive: 0.27%.

On to `CN(C)C(=O)Cn1c(SCC(=O)Nc2ccc3c(c2)OCO3)nc2ccccc21`, for which the activation is inactive: -2.13%.

For `Nc1nonc1-c1nc2ccccc2n1CC(=O)N/N=C\c1ccc(-c2ccc(Cl)cc2)o1`, the activation is inactive: 1.35%.

Regarding `NC(=O)c1cc([N+](=O)[O-])cc([N+](=O)[O-])c1N`, the activation was inactive: 2.18%.

On to `C[C@H](O)[C@@H]1C(=O)N2CCc3ccc(-c4ccccc4)cc3[C@@H]2C[C@@H]1N(C)C(=O)NC1CCCCC1`, for which the activation is inactive: -2.19%.

In the case of `CSc1nc(N)nc2c1ncn2CC(=O)NCc1ccc2[nH]ccc2c1`, the activation is inactive: -4.06%.

For the molecule `Cc1ccc2c(c1)C1CN(C)CCC1N2C(=O)c1ccc(Cl)c(S(=O)(=O)N2CCOCC2)c1` (configuration not stated), the activation is inactive: -2.53%.

Turning to `O=C(Nc1ccccc1)N1CCC(n2c(=O)[nH]c3ccccc32)CC1`, the activation is inactive: -0.65%.

For `CC1CCCN(C(=O)Cn2c(-c3nonc3N)nc3ccccc32)C1` (configuration not stated), the activation was inactive: -2.42%.

For the molecule `CN(CC(=O)Nc1ccc(F)c(F)c1F)C(=O)Cn1cnc2c1c(=O)n(C)c(=O)n2C`, the activation is inactive: 2.24%.

In the case of `CC(CNC(=O)Cn1cnc2c(NCc3ccccc3)ncnc21)c1ccccc1` (configuration not stated), the activation was inactive: -1.9%.

As for `CN(C(=O)Cc1ccc(Cl)c(Cl)c1)[C@H]1CCCC[C@H]1N1CCCC1`, the activation was inactive: -1.09%.

For `O=C(CSc1nc2ccccc2n1CC(=O)N1CCCCC1)N1CCCCC1`, the activation was inactive: -2.2%.

Regarding `CCN(CC)CCn1c(NS(=O)(=O)c2ccc(C)cc2)nc2ccccc21`, the activation was inactive: 2.44%.

For `Cc1ccc(N/C(=N/P(=O)(N2CCOCC2)N2CCOCC2)N2CCOCC2)cc1`, the activation was inactive: -0.08%.

For the molecule `O=C(Cn1cnc2c(NCc3ccccc3)ncnc21)NCc1ccc2c(c1)OCO2`, the activation is inactive: -2.82%.

In the case of `CCOCN(C(=O)Cn1c(C(C)O)nc2ccccc21)c1c(C)cccc1CC` (configuration not stated), the activation is inactive: -2.28%.

Turning to `CN1CCC(N(C)c2ncnc3ccc(Br)cc23)CC1`, the activation was inactive: -2.41%.

For the molecule `Cn1c(=O)c2c(ncn2CC(=O)N2CCN(c3ccc([N+](=O)[O-])cc3)CC2)n(C)c1=O`, the activation was inactive: -2.03%.

For the molecule `CCc1nc2ccccc2n1CC(=O)N(C(C)CC)C1CCS(=O)(=O)C1` (configuration not stated), the activation is inactive: -1.72%.

For `CC(C)=N/N=C(\N)N[N+](=O)[O-]`, the activation was inactive: -1.7%.

In the case of `COC(=O)[C@H](Cc1ccc(O)cc1)NC(=O)Cn1cnc2c(NCc3ccccc3)ncnc21`, the activation was inactive: -3.33%.

Regarding `Cn1c(=O)n(CC(=O)N2CCN(c3nnc(-c4ccccc4)c4ccccc34)CC2)c2ccccc21`, the activation is inactive: -3.16%.

Regarding `CCN(CC)CCn1c(NCc2cccc(OC)c2OC)nc2ccccc21`, the activation is inactive: -3.24%.

As to `NNC(=O)Cn1c(SCc2ccccc2)nc2ccccc21`, the activation was inactive: 3.03%.

Turning to `O=C(Cn1cnc2c(OCc3ccccc3)ncnc21)NCCCN1CCCC1=O`, the activation was inactive: -2.96%.

`CN(C)C(=O)OCCc1n(C)cc[n+]1C`: the activation was inactive: -1.12%.

Regarding `CC1CCN(C(=O)Oc2c(Cl)cc(Cl)c3cccnc23)CC1`, the activation is inactive: 4.44%.

`CNC(=O)Cc1nc2ccccc2n1CC(=O)Nc1cc(C)cc(C)c1`: the activation was inactive: -1.2%.

As for `N=c1n(CCN2CCOCC2)c2ccccc2n1CC(=O)c1cccc([N+](=O)[O-])c1`, the activation was inactive: 0.58%.

For the molecule `O=C1CC(C(=O)Nc2cccc(F)c2)n2c(nc3ccccc32)N1` (configuration not stated), the activation is inactive: 0.26%.

For the molecule `O=C(Cn1cnc2c(OCc3ccccc3)ncnc21)NCCCn1ccnc1`, the activation was inactive: -4.35%.

For the molecule `CCSc1nc2ccccc2n1CC(=O)N1CCCCC1`, the activation is inactive: -2.68%.

Turning to `Cc1nc2ccccc2n1CC(=O)NC1CCCCCC1`, the activation is inactive: -1.22%.

In the case of `FC(F)(F)c1ccc2c(c1)nnn2C1CCN(Cc2nnnn2Cc2ccccc2)CC1`, the activation was inactive: 2.36%.

Consider `COc1ccc2nc(NC(=O)Cn3cnc4c(=O)n(C)c(=O)n(C)c43)sc2c1`, for which the activation is inactive: 0.16%.

As to `CCC(=O)Nc1ccc(NC(=S)NC(=O)/C=C/c2ccccc2)cc1`, the activation is inactive: -1.71%.

`COCC(=O)N(C)[C@H]1C[C@H]2c3cc(N4CCN(C)CC4)ccc3CCN2C(=O)[C@H]1[C@H](C)O`: the activation was inactive: -0.86%.

As to `Nc1ccc([As](=O)(O)c2ccc(N)cc2)cc1`, the activation is inactive: -0.83%.

For `CCC(CC)NC(=O)Cn1c(C(C)NC(C)=O)nc2ccccc21` (configuration not stated), the activation is inactive: 0.37%.

With `c1ccc(CCn2nnnc2CN2CCC(n3nnc4ccccc43)CC2)cc1`, the activation is inactive: -1.35%.

Turning to `C[C@H](NC(=O)N1CCn2c1nc1ccccc12)C(=O)NC1CCCCC1`, the activation is inactive: -1.74%.

For the molecule `CCc1ccc(C(C)NC(=O)Cn2cnc3c(=O)n(C)c(=O)n(C)c32)cc1` (configuration not stated), the activation is inactive: -2.97%.

Turning to `Cc1nc2ccccc2n1CC(=O)NC(C)C1CC2CCC1C2` (configuration not stated), the activation is inactive: 1.28%.

On to `C[N+]1=C2C=CC=CC=C2SC12C([N+](=O)[O-])=CC([N+](=O)[O-])=C[C-]2[N+](=O)[O-]` (configuration not stated), for which the activation is inactive: -0.47%.

With `COc1ccc(-c2ccc3c(c2)[C@@H]2C[C@H](N(C)C(=O)Nc4ccccc4)[C@H]([C@H](C)O)C(=O)N2CC3)cc1`, the activation was inactive: -2.3%.

With `Cc1ccc(-c2nnc(N3CCN(C(=O)Cn4c(=O)n(C)c5ccccc54)CC3)c3ccccc23)cc1`, the activation was inactive: -0.3%.

Consider `COc1ccc(/C([O-])=C(/C(=S)Nc2ccc(C)c(C)c2)n2c[n+](C)c3ccccc32)cc1OC`, for which the activation was inactive: -5.48%.

Take `CCN(/C(=N/P(=O)(N1CCOCC1)N1CCOCC1)N1CCOCC1)c1ccc(OC)cc1`: the activation was inactive: -2.87%.

On to `CC(C)C[C@H](NC(=O)N1CCn2c1nc1ccccc12)C(=O)NC1CCCCC1`, for which the activation was inactive: -0.49%.

Regarding `O=C(Nc1ccc2c(c1)nc1n2CCN(Cc2ccccc2)C1)NC1CCCCC1`, the activation is inactive: -2.47%.

For the molecule `CCOC(=O)c1c(NC(=O)Cn2c(C)nc3ccccc32)sc2c1CCC2`, the activation was inactive: -0.88%.

On to `Cn1ncc([N+](=O)[O-])c1C(=O)Nc1nc2ccccc2n1CCN1CCCCC1`, for which the activation is inactive: -1.88%.

Take `CC(=O)N1C2C3N(C(C)=O)C1C1N(C(C)=O)C(C(N1C(C)=O)N3C(C)=O)N2C(C)=O`: the activation is inactive: -2.89%.

Consider `CC#CCCC(=O)N1C=Cc2ccccc2C1C#N` (configuration not stated), for which the activation is inactive: -2.03%.

On to `O=[N+]([O-])c1cccc2n[nH]nc12`, for which the activation was inactive: -2.58%.

As for `COC(=O)c1sccc1NC(=O)Cn1cnc2c1c(=O)n(C)c(=O)n2C`, the activation was inactive: 1.51%.

On to `N#CCCNC(=O)Cn1c(COc2ccc(Cl)cc2)nc2ccccc21`, for which the activation is inactive: -0.65%.

For the molecule `Cn1c(=O)[nH]c(=O)c2c1nc1n2CCN1Cc1ccccc1`, the activation was inactive: -2.47%.

As for `Nc1nonc1-c1nc2ccccc2n1CC(=O)N1CCCCC1`, the activation is inactive: 0.04%.

Take `Cc1ccc(C)c(CN2CCC(n3nnc4cc(F)ccc43)CC2)c1`: the activation was active: 44.1%.

Consider `CCOc1ccccc1OCC(=O)NNC(=O)Cn1cnc2c1c(=O)n(C)c(=O)n2C`, for which the activation is inactive: 0.72%.

With `CC1CCCCC1NC(=O)Cn1cnc2c1c(=O)n(C)c(=O)n2C` (configuration not stated), the activation is inactive: -0.27%.

With `Cc1ccccc1Cn1c(=O)c2c(nc3n2CCN3Cc2ccco2)n(C)c1=O`, the activation was inactive: -3.79%.

As to `Cc1nc2ccccc2n1CC(=O)N/N=C/c1cccs1`, the activation was inactive: -2.7%.

Regarding `COC(=O)c1ccccc1NC(=O)Cn1cnc2cc(C)c(C)cc21`, the activation is inactive: 0.41%.

`CSCC[C@H](NC(=O)N1CCn2c1nc1ccccc12)C(=O)N[C@H](Cc1ccccc1)C(=O)O`: the activation was inactive: -3.17%.

In the case of `Cc1ccc(NP(=O)(Oc2ccccc2)Oc2ccccc2)nc1`, the activation is inactive: -3.07%.

On to `O=[N+]([O-])c1ccc(NC2CCN(Cc3ccccc3)CC2)c([N+](=O)[O-])c1`, for which the activation was inactive: -0.76%.

In the case of `CC1CC(C)CN(C(=O)Cn2c(-c3nonc3N)nc3ccccc32)C1` (configuration not stated), the activation is inactive: -1.59%.

Turning to `Cc1csc2ncnc(NC3CCN(Cc4ccccc4)CC3)c12`, the activation was inactive: -0.3%.

`Cn1c(=O)[nH]c(=O)c2c1nc(CN1CCN(Cc3ccccc3)CC1)n2CC(N)=O`: the activation is inactive: -2.71%.

As to `Cc1ccc(OCC(O)Cn2c(=N)n(CCN3CCOCC3)c3ccccc32)cc1` (configuration not stated), the activation was inactive: -0.63%.

Consider `COC(=O)c1ccc(NC(=O)Cn2c(-c3nonc3N)nc3ccccc32)cc1`, for which the activation is inactive: -2.58%.

For the molecule `N=c1n(CCN2CCCCC2)c2ccccc2n1CC(O)COc1ccccc1` (configuration not stated), the activation was inactive: -1.56%.

Regarding `O=[N+]([O-])c1cc([N+](=O)[O-])c(CCNc2ccccc2)c([N+](=O)[O-])c1`, the activation was inactive: 6.52%.

For the molecule `CCc1nc2c(n1)c1c(non1O)c1c2no[n+]1[O-]`, the activation is inactive: 7.24%.

In the case of `O=C(NC1CCCCC1)N1CCC(n2c(=O)[nH]c3ccccc32)CC1`, the activation was inactive: 2.71%.

Turning to `Cn1c(=O)c2c(nc(Sc3nc4ccccc4n3CC(=O)N3CCCCC3)n2C)n(C)c1=O`, the activation was inactive: 0.15%.

Take `CCC(C)[C@H](NC(=O)N1CCn2c1nc1ccccc12)C(=O)NCCc1ccccc1` (some centres not stated): the activation was inactive: 0.87%.

With `C[C@H](O)[C@@H]1C(=O)N2CCc3ccc(-c4ccccc4)cc3[C@@H]2C[C@@H]1N(C)C(=O)Nc1cc(Cl)cc(Cl)c1`, the activation is inactive: 1.21%.

`CCC(=O)Nc1cccc(C(=O)/C=C/c2cccs2)c1`: the activation was inactive: 1.88%.

With `COc1ccc(C2=NCC(CBr)S2)cc1` (configuration not stated), the activation is inactive: -0.65%.

For the molecule `CCN(CC)CCn1c(=N)n(CCO)c2ccccc21`, the activation is inactive: -2.16%.

As to `Cn1c(=O)c2c(ncn2CC(=O)N/N=C/c2ccco2)n(C)c1=O`, the activation was inactive: -1.39%.

As to `CC(=O)N1CCc2cc(S(=O)(=O)NC(CC(C)C)C(=O)N3CCn4c3nc3ccccc34)ccc21` (configuration not stated), the activation was inactive: 0.19%.

Take `CSc1nc(N)nc2c1ncn2CC(=O)NCCCc1ccccc1`: the activation was inactive: -2.22%.
